Assay results as given in patent US10071090B2 (priority 2014, dated 2018).

CN1CC[C@]23c4c5ccc(O)c4O[C@H]2C(=O)CC[C@H]3[C@H]1C5 [Hydromorphone]
Required flux (derived from daily dose, bioavailability and a theoretical patch size): 11.4 μg/cm^2/h
Dose after first pass effect (from oral dose (mg/day) and bioavailability): 10.9 mg/day
